Values of other authors in patent US10555923B2, “Method for treating paroxysmal nocturnal hemoglobinuria” (ENZYCHEM LIFESCIENCES CORPORATION, priority 2015, dated 2020).

Test system: terminal complement activation
Conditions: Cochrane review 2014; cited from earlier work

B1: eculizumab: monoclonal antibody which blocks terminal complement activation (antibody, chains of the INN, looked up)
heavy: QVQLVQSGAEVKKPGASVKVSCKASGYIFSNYWIQWVRQAPGQGLEWMGEILPGSGSTEYTENFKDRVTMTRDTSTSTVYMELSSLRSEDTAVYYCARYFFGSSPNWYFDVWGQGTLVTVSSASTKGPSVFPLAPCSRSTSESTAALGCLVKDYFPEPVTVSWNSGALTSGVHTFPAVLQSSGLYSLSSVVTVPSSNFGTQTYTCNVDHKPSNTKVDKTVERKCCVECPPCPAPPVAGPSVFLFPPKPKDTLMISRTPEVTCVVVDVSQEDPEVQFNWYVDGVEVHNAKTKPREEQFNSTYRVVSVLTVLHQDWLNGKEYKCKVSNKGLPSSIEKTISKAKGQPREPQVYTLPPSQEEMTKNQVSLTCLVKGFYPSDIAVEWESNGQPENNYKTTPPVLDSDGSFFLYSRLTVDKSRWQEGNVFSCSVMHEALHNHYTQKSLSLSLG
light: DIQMTQSPSSLSASVGDRVTITCGASENIYGALNWYQQKPGKAPKLLIYGATNLADGVPSRFSGSGSGTDFTLTISSLQPEDFATYYCQNVLNTPLTFGQGTKVEIKRTVAAPSVFIFPPSDEQLKSGTASVVCLLNNFYPREAKVQWKVDNALQSGNSQESVTEQDSKDSTYSLSSTLTLSKADYEKHKVYACEVTHQGLSSPVTKSFNRGEC
  need for blood transfusions and quality of life in PNH patients: reduces the need for blood transfusions and improves quality of life
  overall mortality or incidence of clots in PNH patients: does not reduce overall mortality or the incidence of clots
